{"source": "patent US5985885A", "about": "“Quinazoline-4-amino-2-(piperidine-1-yl-4-substituted) derivatives having antihypertensive activity, a method for their preparation and their pharmaceutical use” (priority 1996, dated 1999)", "target": "alpha1A + alpha1C adrenergic receptor (human prostate)", "assay": "[3H]-prazosin binding in human prostate", "conditions": "alpha1A + alpha1C subtype, pH 7.5, 30 min, 25° C., read-out: Inhibition of the binding of [3H]-prazosin IC50", "note": "pIC50: −log10 of the molar value."}
{"smiles": "COc1cc2nc(N3CCN(C(=O)c4ccco4)CC3)nc(N)c2cc1OC", "note": "[Prazosin, reference compound]", "values": [{"measurement": "pIC50", "value": 8.64}]}
